Test results published in patent US20100130514A1, “FUSED HETEROCYCLIC DERIVATIVE, PHARMACEUTICAL COMPOSITION COMPRISING THE DERIVATIVE, AND USE OF THE COMPOSITION FOR MEDICAL PURPOSES” (Kissei Pharmaceutical Co., Ltd., priority 2007, published 2010).

Chains of the proteins cited; added tags and fusions are not shown.
UniProt P30968, whole entry: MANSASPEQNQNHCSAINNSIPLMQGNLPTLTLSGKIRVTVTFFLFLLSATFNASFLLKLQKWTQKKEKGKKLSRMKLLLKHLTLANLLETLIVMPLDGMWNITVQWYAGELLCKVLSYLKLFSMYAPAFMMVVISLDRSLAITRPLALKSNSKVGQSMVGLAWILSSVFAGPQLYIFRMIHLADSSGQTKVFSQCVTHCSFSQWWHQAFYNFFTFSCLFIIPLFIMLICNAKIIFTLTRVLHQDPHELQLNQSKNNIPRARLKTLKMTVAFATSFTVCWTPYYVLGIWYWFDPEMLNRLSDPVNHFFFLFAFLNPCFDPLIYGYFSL

Experiments:
[1] = Assay for oral absorbability: plasma drug concentration after oral administration; settings: overnight fasted male SD rats, 3 mg/kg
Method: Assay for Oral Absorbability
1) Preparation of the Samples for Measurement of the Drug Concentration After Oral Administration
As experimental animal, overnight fasted SD rats (Charles River, male, 7 weeks of age, 170-210 g) were used. Three mg of a test compound was dissolved by adding 0.2 mL of N,N-dimethylacetoamide, 9.794 mL of 0.5% aqueous methylcellulose solution and 0.006 mL of 2N NaOH, and then 0.3 mg/mL solution was prepared. The body weights of rats were measured, and the solution of the test compound was administered orally at the dose of 10 mL/kg (3 mg/kg). The oral administration was performed with gastric tube for rat and 2.5 mL syringe. The sampling times for collection of blood were 15, 30, 60, 120, 240 and 360 minutes after the oral administration. The blood was centrifuged, and the plasma was used as the sample for measurement of the drug concentration in blood.
2) Measurement of the Drug Concentration
To 0.025 mL of the plasma obtained in 1) described above, 0.1 mL of an adequate internal standard material was added according to the usual method, and then deproteinization was performed by adding 0.875 mL of acetonitrile. After centrifugation, 0.005 mL of the supernatant was injected into LC-MS/MS. The drug concentration in plasma was measured by LC-MS/MS method under the conditions as follows. […]

human GnRHR1 = human GnRHR1 (Homo sapiens, UniProt P30968); assay: Inhibitory effect for the change of calcium levels in GnRH-stimulated cells (hGnRHR1#1 HEK293 cells); settings: read-out: IC50 (drug concentration at which 50% GnRH-stimulated intracellular calcium flux was inhibited); HEK293 cells stably expressing human GnRHR1; 10 nM GnRH added; FLIPR Calcium Assay Kit
Description: 1) Cloning and Construction of the Vector Expressing Human GnRH Receptor1 (GnRHR1)
Using cDNA derived from human pituitary (BECTON DICKINSON) as a template, the DNA fragment coding 45 to 1115 by of human GnRHR1 (Accession No. L03380), which was reported by Kakar et al., was amplified by PCR method and inserted into the multi-cloning site of pcDNA3.1(+) (Invitrogen). The DNA sequence inserted was perfectly matched to the previously reported sequence.
2) Establishment of Cell Line Stably Expressing Human GnRH Receptor1 HEK293 Cells
The expression vector of human GnRHR1 gene, was digested by XhoI into a linear DNA. The linear DNA was transfected into HEK293 cells by means of lipofection (Lipofectamine2000: Invitrogen). Neomycin resistant cell lines were selected by culture in the medium containing G418 (Invitrogen) at 1 mg/mL, and then the change of calcium levels in GnRH-stimulated cells was measured by the method described below.
3) Assay of Inhibitory Effect for the Change of Calcium Levels in GnRH-Stimulated Cells
Antagonizing effect of compounds for human GnRHR1 was evaluated by depression of calcium levels in GnRH-stimulated cells. hGnRHR1#1 cells were seeded into a 96-well culture plate at a density of 1.5×10^5 cells/well and cultured for a day. […] Then, intracellular calcium levels were determined under the following condition by using FLEX STATION (Molecular Devices). […]

O=C(O)c1scc2[nH]c(=O)n(-c3cc(S(=O)(=O)N4CCCc5ccccc54)ccc3Cl)c(=O)c12
C360 (plasma drug concentration at 360 minutes after administration) [1]: 21 | IC50 (human GnRHR1): 18 nM
